According to PubChem BioAssay AID652054 (National Center for Advancing Translational Sciences (NCATS), 2013):
The list shows a part of the results, in another mix than the full data. Inconclusive results are not listed. The source made the active and inactive calls. Rule as the data show it: active = max response below about -50%; inconclusive = no clear call, values can overlap the other calls; inactive = above that.

The chains behind the UniProt entries cited, without tags or fusion partners.
UniProt P35462, whole entry: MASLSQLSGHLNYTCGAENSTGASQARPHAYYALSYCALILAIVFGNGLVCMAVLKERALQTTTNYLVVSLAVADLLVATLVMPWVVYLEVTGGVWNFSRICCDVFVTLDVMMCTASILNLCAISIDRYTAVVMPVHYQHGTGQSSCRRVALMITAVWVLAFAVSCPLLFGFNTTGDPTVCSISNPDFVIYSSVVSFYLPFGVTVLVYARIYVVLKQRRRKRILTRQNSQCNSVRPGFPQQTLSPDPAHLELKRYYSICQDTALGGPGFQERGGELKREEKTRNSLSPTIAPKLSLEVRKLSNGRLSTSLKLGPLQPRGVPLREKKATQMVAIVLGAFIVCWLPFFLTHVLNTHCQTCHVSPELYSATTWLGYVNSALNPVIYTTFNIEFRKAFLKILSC

biological target: D(3) dopamine receptor (Homo sapiens) (UniProt P35462); assay: qHTS of D3 Dopamine Receptor Antagonist: qHTS; conditions: D3R cells, DiscoveRx beta-arrestin luminescence, antagonist mode; stronger effect = lower value
Excerpt: D3 DARs represent a very important target for the treatment of several neuropsychiatric disorders. Indeed, one of the most promising therapeutic applications for the D3 DAR is in the area of addiction and related disorders. […] These findings have been observed with a number of addictive substances including cocaine, amphetamine, nicotine, and alcohol. […] Antagonism of the D3 DAR may also be therapeutic in the treatment of schizophrenia or psychosis. […] Since the D3 DAR is expressed in areas of the CNS associated with the control of mood and emotion, it has been hypothesized that selective antagonism of the D3 DAR may be effective in treating psychosis without inducing the motor side effects typically seen with D2 DAR antagonists.
This part of the project aims to discover novel antagonist.
NIH Chemical Genomics Center [NCGC]
NIH Molecular Libraries Probe Centers Network [MLPCN]
Assay Submitter (PI): David Sibley, NINDS
Freshly passaged cells are plated in 1536 well white, solid bottom plates at a density of 1500 cells/well in 3microl of complete media. After an overnight incubation at 37 degrees C in 5% CO2, cells are loaded with 23nl of test compound from the compound library (as well as dopamine controls) using a 1536 pintool and incubated at 37 degrees C for 90 minutes. Two microliters of DiscoveRx reagent is then added to all cells, and they are incubated for an additional 30 - 60 minutes at room temperature. Following incubation, luminescence is measured on a ViewLux CCD-based luminometer reader using a 20 sec exposure time.
% is scaled to controls: 0 for no effect and ±100 for the full control effect.

SMILES	max response, negative = inhibition
CP(=O)(Nc1ccccc1F)Oc1ccccc1 (stereo not given)	inactive: 11%
CC(C)c1ccc(OP(C)(=O)Nc2ccc(SC(F)(F)F)cc2)cc1 (stereo not given)	inactive: 7.27%
O=C(OCCN1CCN(CCOCc2ccccc2)CC1)C(O)(c1ccccc1)c1ccccc1	inactive: -18.4%
CCOC(=O)c1ccc(NP(C)(=O)Oc2ccc(F)cc2)cc1 (stereo not given)	inactive: 6.03%
COc1ccc(OP(C)(=O)Nc2ccc(SC(F)(F)F)cc2)cc1 (stereo not given)	inactive: -8.96%
Cc1c([N+](=O)[O-])cc([N+](=O)[O-])c(Br)c1[N+](=O)[O-]	inactive: 20%
CCN(CC)CCCOC(=O)C(O)(c1ccccc1)C1CCCCC1 (stereo not given)	active: -73.9%
CP(=O)(Nc1ccccc1)Oc1ccc(F)cc1 (stereo not given)	inactive: 7.05%
CCCCCOc1ccc(NP(C)(=O)Oc2ccc(Cl)cc2Cl)cc1 (stereo not given)	inactive: -10.2%
COc1ccc(OP(C)(=O)Nc2cccc(Br)c2)cc1 (stereo not given)	inactive: 18.2%
CN(C)CCOC(=O)C(O)(c1ccccc1)C1CCCCC1 (stereo not given)	active: -77.1%
COc1ccc(NP(C)(=O)Oc2ccccc2OC)cc1 (stereo not given)	inactive: 0.0694%
O=[N+]([O-])c1ccc(OP2(=O)COCCO2)cc1 (stereo not given)	inactive: -24.3%
Cc1c(C(c2ccc3c(c2)OCO3)c2c(C)n(C)n(-c3ccccc3)c2=O)c(=O)n(-c2ccccc2)n1C.O=[N+]([O-])c1cc([N+](=O)[O-])c(O)c([N+](=O)[O-])c1	inactive: 13.1%
CP(=O)(Nc1ccc(SC(F)(F)F)cc1)Oc1ccc(F)cc1 (stereo not given)	inactive: -13%
CCOP(C)(=S)SCC(=O)NC(C)(CC)C(=O)O (stereo not given)	inactive: -7.74%
CP(=O)(Nc1ccc2c(c1)OCCO2)Oc1ccccc1 (stereo not given)	inactive: -19.7%
Cc1ccccc1NP(C)(=O)Nc1ccccc1C	inactive: 5.98%
COc1ccc(OP(C)(=O)Nc2ccc(Br)cc2)cc1 (stereo not given)	inactive: 5.39%
CCN(CC)CC(O)COC(=O)C(O)(c1ccccc1)C1CCCCC1 (stereo not given)	active: -77.3%
O=C(OCCCN1CCCC1)C(O)(c1ccccc1)C1CCCCC1 (stereo not given)	active: -82.2%
COc1ccccc1OP(C)(=O)Nc1c(C)n(C)n(-c2ccccc2)c1=O (stereo not given)	inactive: 21.2%
CCc1ccc(OP(C)(=O)Nc2cccnc2)cc1 (stereo not given)	inactive: 18.3%
CP(=O)(Oc1ccccc1)N1CCOC1=O (stereo not given)	inactive: -8.8%
CC(C)(C)c1ccc(OP(C)(=O)O)cc1	inactive: -6.06%
COc1ccccc1OP(C)(=O)Nc1ccccc1Br (stereo not given)	inactive: 3.52%
CP(=O)(Nc1ccc(Cl)cc1)Oc1ccc(F)cc1 (stereo not given)	inactive: 8.82%

SMILES	max response, negative = inhibition
Nc1ccc2c(ccc3cccnc32)n1.O=[N+]([O-])c1cc([N+](=O)[O-])c(O)c([N+](=O)[O-])c1	inactive: 2.9%
CCOC(=O)c1ccc(NP(C)(=O)Oc2ccc(Cl)cc2)cc1 (stereo not given)	inactive: 6.25%
CP(=O)(OC12CC3CC(CC(C3)C1)C2)OC12CC3CC(CC(C3)C1)C2	inactive: 3.24%
Cc1cc(C)cc(OP(C)(=O)Nc2cccc(C(F)(F)F)c2)c1 (stereo not given)	inactive: -6.63%
COc1ccccc1OP(C)(=O)Nc1ccc(C)c(C)c1 (stereo not given)	inactive: 2.57%
COc1ccc(OP(C)(=O)Nc2ccccc2Br)cc1 (stereo not given)	inactive: 8.41%
CP(=O)(OCCOc1ccccc1)OCCOc1ccccc1	inactive: -6.46%
CP(=O)(Nc1ccc(Cl)cc1Cl)Oc1ccccc1 (stereo not given)	inactive: -12.2%
CCCCCCCCCCCCCCCC1C[N+](C)(C)CCOP(C)(=O)O1 (stereo not given)	inactive: 0%
COc1ccccc1OP(C)(=O)Nc1ccc(Br)cc1 (stereo not given)	inactive: 6.33%
COc1ccc(OP(C)(=O)Nc2ccccn2)cc1 (stereo not given)	inactive: 1.58%
CN(C)CCOC(=O)C(O)(c1ccccc1)C1CCCC1 (stereo not given)	inactive: -24.1%
Cc1c(NP(C)(=O)Oc2ccc(C(C)C)cc2)c(=O)n(-c2ccccc2)n1C (stereo not given)	inactive: 16.1%
COc1ccccc1OP(C)(=O)Nc1ccc(C)cc1C (stereo not given)	inactive: -6.94%
CP(=O)(Nc1ccccn1)Oc1ccccc1 (stereo not given)	inactive: -0.961%
CCc1ccc(OP(C)(=O)O)cc1	inactive: 7.36%
CCN(CC)CCCOC(=O)C(O)(c1ccccc1)c1ccccc1	inactive: -0.2%
O=[N+]([O-])c1cc([N+](=O)[O-])c(Nc2cccnc2)c([N+](=O)[O-])c1	inactive: 0.176%
O=[N+]([O-])c1ccc2c(c1)C=Nc1ccccc1O2	inactive: -2.23%
Cc1cccc(C)c1OP(C)(N)=O (stereo not given)	inactive: -3.43%
CC(C)(C)c1ccc(OP(C)(=O)Nc2ccc(SC(F)(F)F)cc2)cc1 (stereo not given)	inactive: -18.1%
Cc1ccc(NP(C)(=O)Oc2ccccc2)c(C)c1 (stereo not given)	inactive: 4.62%
COc1ccccc1OP(C)(=O)Nc1ccc(C)cc1 (stereo not given)	inactive: 8.58%
CCOC(=O)c1ccc(NP(C)(=O)Oc2ccccc2)cc1 (stereo not given)	inactive: 2.62%
Cc1cc(C)cc(OP(C)(N)=O)c1 (stereo not given)	inactive: -4.55%
COc1ccc(OP(C)(=O)Nc2cccc(F)c2)cc1 (stereo not given)	inactive: 9.36%
COc1ccccc1OP(C)(=O)Nc1cc(Cl)ccc1C (stereo not given)	inactive: -4.28%

SMILES	max response, negative = inhibition
CP(=S)(Nn1cnnc1)Oc1ccccc1 (stereo not given)	inactive: -16.8%
CP(=O)(Nc1ccccc1Br)Oc1ccccc1 (stereo not given)	inactive: -13.5%
COc1ccccc1OP(C)(=O)Nc1ccccc1 (stereo not given)	inactive: 0.826%
CP(=O)(Oc1ccccc1)OC(c1ccccc1)C(F)(F)F (stereo not given)	inactive: -7.12%
CP(=O)(Nc1ccc(SC(F)(F)F)cc1)Oc1ccc(Cl)cc1 (stereo not given)	inactive: -21.3%
Cc1cccc(C)c1OP(C)(=O)Nc1ccc(SC(F)(F)F)cc1 (stereo not given)	inactive: 4.2%
Cc1cc(C)cc(OP(C)(=O)Nc2ccc(SC(F)(F)F)cc2)c1 (stereo not given)	inactive: 10.7%
CCc1ccc(OP(C)(=O)N2CCN(c3ccc([N+](=O)[O-])cc3)CC2)cc1 (stereo not given)	inactive: 4.9%
CP(=O)(NC(=O)Nc1ccccc1)Oc1ccccc1 (stereo not given)	inactive: 6.49%
O=[N+]([O-])c1cc([N+](=O)[O-])c(O)c([N+](=O)[O-])c1.c1ccc(Oc2ccncc2)cc1	inactive: -19.4%
CCOC(=O)c1ccc(NP(C)(=O)Oc2ccc(OC)cc2)cc1 (stereo not given)	inactive: 8.6%
CCOP(C)(=S)SCC(=O)NC(C)C(=O)O (stereo not given)	inactive: -24.8%
CP(=O)(Nc1ccccn1)Oc1ccc(Cl)cc1 (stereo not given)	inactive: 10.5%
CN(Cc1cccnc1)C(=O)COc1ccc(Cl)c(Cl)c1.O=[N+]([O-])c1cc([N+](=O)[O-])c(O)c([N+](=O)[O-])c1	inactive: 7.1%
O=[N+]([O-])c1cc([N+](=O)[O-])c(Nc2nnnn2CCO)c([N+](=O)[O-])c1	inactive: -21.8%
CN1CCCCC1COC(=O)C1(O)c2ccccc2CCc2ccccc21 (stereo not given)	inactive: -9.96%
COc1ccccc1OP(C)(=O)Nc1c(C)cccc1C (stereo not given)	inactive: -16.2%
CP(=O)(Nc1ccc(SC(F)(F)F)cc1)Oc1ccccc1 (stereo not given)	inactive: -20.1%
CCCOc1ccc(NP(C)(=O)Oc2ccc(Cl)cc2)cc1 (stereo not given)	inactive: 6.07%
CC1=NCCc2c1[nH]c1ccccc21.O=[N+]([O-])c1cc([N+](=O)[O-])c(O)c([N+](=O)[O-])c1	inactive: 0%
COc1ccccc1OP(C)(=O)Nc1cccc(Br)c1 (stereo not given)	inactive: 1.41%
CCOC(=O)c1ccc(NP(C)(=O)Oc2cc(C)cc(C)c2)cc1 (stereo not given)	inactive: -12.1%
Cc1cc(C)cc(OP(C)(=O)Nc2ccc(C)cc2C)c1 (stereo not given)	inactive: -12.7%
Cc1ccc(C)c(NP(C)(=O)Oc2ccccc2)c1 (stereo not given)	inactive: 5.41%
CP(=O)(Nc1cccc(Br)c1)Oc1ccccc1 (stereo not given)	inactive: -5.04%
Cc1cc(C)cc(OP(C)(=O)Nc2ccccn2)c1 (stereo not given)	inactive: 14%
